The record followed here is the Human Domainome abundance scans (Beltran et al. 2025).

First the molecules themselves.
B1: Tyrosine-protein kinase ABL1, residues 64 to 120; numbered along this chain, P00519 (parent)
chain: NLFVALYDFVASGDNTLSITKGEKLRVLGYNHNGEWCEAQTKNGQGWVPSNYITPVN

± gives the uncertainty stated by the source.

The variants in this data set derive from B1. Kind of data set: abundance fitness (aPCA) (normalised: wild type 0, dead -1); higher = more abundant; growth selection in yeast, the domain comes from the species named. Particulars: Homo sapiens.
In the case of NLFVALYDFVASGDNTLSITKGEKLRVLGYNHNGEWCEAQTKNGQGWVPSNAITPVN [Y52A], the abundance fitness came to 0.232 ± 0.089. Under NLFVALYDFVASGDNTLSITKGEKLRVLGYNHNGEWCEAQTKNGQGWVPSNLITPVN [Y52L] stands 0.033 ± 0.055; under NLFVALYDFVASGDNTLSITKGEKLRVLGYNHNGEWCEAQTKNGQGWVPSNTITPVN [Y52T], 0.258 ± 0.095; under NLFVALYDFVASGDNTLSITKGEKLRVLGYNHNGEWCEAQTKNGQGWVPSNPITPVN [Y52P], -0.893 ± 0.29. Take NLFVALYDFVASGDNTLSITKGEKLRVLGYNHNGEWCEAQTKNGQGWVPSNVITPVN [Y52V]: the abundance fitness is 0.02 ± 0.079. Regarding NLFVALYDFVASGDNTLSITKGEKLRVLGYNHNGEWCEAQTKNGQGWVPSNMITPVN [Y52M], the abundance fitness was determined as 0.13 ± 0.11.

Turning to NLFVALYDFVASGDNTLSITKGEKLRVLGYNHNGEWCEAQTKNGQGWVPSNCITPVN [Y52C], the abundance fitness stood at 0.049 ± 0.069. In the case of NLFVALYDFVASGDNTLSITKGEKLRVLGYNHNGEWCEAQTKNGQGWVPSNWITPVN [Y52W], the abundance fitness is -0.204 ± 0.078. With NLFVALYDFVASGDNTLSITKGEKLRVLGYNHNGEWCEAQTKNGQGWVPSNRITPVN [Y52R], the abundance fitness is -0.028 ± 0.06. For the variant NLFVALYDFVASGDNTLSITKGEKLRVLGYNHNGEWCEAQTKNGQGWVPSNFITPVN [Y52F], the abundance fitness came out at 0.084 ± 0.09. Next, NLFVALYDFVASGDNTLSITKGEKLRVLGYNHNGEWCEAQTKNGQGWVPSNKITPVN [Y52K]: -0.094 ± 0.15. On to NLFVALYDFVASGDNTLSITKGEKLRVLGYNHNGEWCEAQTKNGQGWVPSNGITPVN [Y52G], for which the abundance fitness is -0.023 ± 0.078. As for NLFVALYDFVASGDNTLSITKGEKLRVLGYNHNGEWCEAQTKNGQGWVPSNDITPVN [Y52D], the abundance fitness is -0.694 ± 0.21. For NLFVALYDFVASGDNTLSITKGEKLRVLGYNHNGEWCEAQTKNGQGWVPSNQITPVN [Y52Q], the abundance fitness is -0.305 ± 0.17.

On to NLFVALYDFVASGDNTLSITKGEKLRVLGYNHNGEWCEAQTKNGQGWVPSNHITPVN [Y52H], for which the abundance fitness was -0.181 ± 0.12. Turning to NLFVALYDFVASGDNTLSITKGEKLRVLGYNHNGEWCEAQTKNGQGWVPSNIITPVN [Y52I], the abundance fitness is -0.219 ± 0.13. As for NLFVALYDFVASGDNTLSITKGEKLRVLGYNHNGEWCEAQTKNGQGWVPSNEITPVN [Y52E], the abundance fitness is -0.736 ± 0.16. In the case of NLFVALYDFVASGDNTLSITKGEKLRVLGYNHNGEWCEAQTKNGQGWVPSNYQTPVN [I53Q], the abundance fitness is -0.892 ± 0.26. Consider NLFVALYDFVASGDNTLSITKGEKLRVLGYNHNGEWCEAQTKNGQGWVPSNYRTPVN [I53R], for which the abundance fitness was -1.03 ± 0.099. For NLFVALYDFVASGDNTLSITKGEKLRVLGYNHNGEWCEAQTKNGQGWVPSNYATPVN [I53A], the abundance fitness was -0.332 ± 0.088. Regarding NLFVALYDFVASGDNTLSITKGEKLRVLGYNHNGEWCEAQTKNGQGWVPSNYMTPVN [I53M], the abundance fitness is -0.217 ± 0.14. On to NLFVALYDFVASGDNTLSITKGEKLRVLGYNHNGEWCEAQTKNGQGWVPSNYLTPVN [I53L], for which the abundance fitness is 0.082 ± 0.073. With NLFVALYDFVASGDNTLSITKGEKLRVLGYNHNGEWCEAQTKNGQGWVPSNYFTPVN [I53F], the abundance fitness is -0.567 ± 0.2. NLFVALYDFVASGDNTLSITKGEKLRVLGYNHNGEWCEAQTKNGQGWVPSNYETPVN [I53E]: the abundance fitness was -1.11 ± 0.2. For the variant NLFVALYDFVASGDNTLSITKGEKLRVLGYNHNGEWCEAQTKNGQGWVPSNYSTPVN [I53S], the abundance fitness is -0.999 ± 0.15. For NLFVALYDFVASGDNTLSITKGEKLRVLGYNHNGEWCEAQTKNGQGWVPSNYTTPVN [I53T], the abundance fitness was -0.077 ± 0.073. Consider NLFVALYDFVASGDNTLSITKGEKLRVLGYNHNGEWCEAQTKNGQGWVPSNYGTPVN [I53G], for which the abundance fitness is -0.999 ± 0.075. Next, NLFVALYDFVASGDNTLSITKGEKLRVLGYNHNGEWCEAQTKNGQGWVPSNYKTPVN [I53K]: -0.684 ± 0.35. With NLFVALYDFVASGDNTLSITKGEKLRVLGYNHNGEWCEAQTKNGQGWVPSNYCTPVN [I53C], the abundance fitness turned out to be 0.044 ± 0.13.

Consider NLFVALYDFVASGDNTLSITKGEKLRVLGYNHNGEWCEAQTKNGQGWVPSNYWTPVN [I53W], for which the abundance fitness was -0.974 ± 0.21. Consider NLFVALYDFVASGDNTLSITKGEKLRVLGYNHNGEWCEAQTKNGQGWVPSNYITPMN [V56M], for which the abundance fitness came to 0.192 ± 0.086. In the case of NLFVALYDFVASGDNTLSITKGEKLRVLGYNHNGEWCEAQTKNGQGWVPSNYITPKN [V56K], the abundance fitness is 0.139 ± 0.19.

With NLFVALYDFVASGDNTLSITKGEKLRVLGYNHNGEWCEAQTKNGQGWVPSNYITPSN [V56S], the abundance fitness is -0.021 ± 0.08. With NLFVALYDFVASGDNTLSITKGEKLRVLGYNHNGEWCEAQTKNGQGWVPSNYITPEN [V56E], the abundance fitness was 0.109 ± 0.083. Take NLFVALYDFVASGDNTLSITKGEKLRVLGYNHNGEWCEAQTKNGQGWVPSNYITPRN [V56R]: the abundance fitness is -0.149 ± 0.088. For the variant NLFVALYDFVASGDNTLSITKGEKLRVLGYNHNGEWCEAQTKNGQGWVPSNYITPIN [V56I], the abundance fitness is -0.199 ± 0.14. On to NLFVALYDFVASGDNTLSITKGEKLRVLGYNHNGEWCEAQTKNGQGWVPSNYITPNN [V56N], for which the abundance fitness worked out at 0.028 ± 0.23. For NLFVALYDFVASGDNTLSITKGEKLRVLGYNHNGEWCEAQTKNGQGWVPSNYITPCN [V56C], the abundance fitness was -0.159 ± 0.088. On to NLFVALYDFVASGDNTLSITKGEKLRVLGYNHNGEWCEAQTKNGQGWVPSNYITPFN [V56F], for which the abundance fitness amounted to 0.081 ± 0.13. Under NLFVALYDFVASGDNTLSITKGEKLRVLGYNHNGEWCEAQTKNGQGWVPSNYITPDN [V56D] stands -0.218 ± 0.15; under NLFVALYDFVASGDNTLSITKGEKLRVLGYNHNGEWCEAQTKNGQGWVPSNYITPHN [V56H], -0.003 ± 0.11; under NLFVALYDFVASGDNTLSITKGEKLRVLGYNHNGEWCEAQTKNGQGWVPSNYITPAN [V56A], -0.209 ± 0.088.

For the variant NLFVALYDFVASGDNTLSITKGEKLRVLGYNHNGEWCEAQTKNGQGWVPSNYITPPN [V56P], the abundance fitness is 0.209 ± 0.37. Consider NLFVALYDFVASGDNTLSITKGEKLRVLGYNHNGEWCEAQTKNGQGWVPSNYITPLN [V56L], for which the abundance fitness was -0.126 ± 0.097. As for NLFVALYDFVASGDNTLSITKGEKLRVLGYNHNGEWCEAQTKNGQGWVPSNYITPYN [V56Y], the abundance fitness was 0.043 ± 0.09. Take NLFVALYDFVASGDNTLSITKGEKLRVLGYNHNGEWCEAQTKNGQGWVPSNYITPGN [V56G]: the abundance fitness was -0.136 ± 0.056.
